For four substances, Kd and EC50 results are on record in patent US20170129926A1.

Broadly, the Kd is the equilibrium constant for the complex coming apart. A lower Kd goes with higher affinity. In general, EC50 refers to the concentration needed to bring the measured effect to its halfway point.

The target in assay [1] is human IL-6 (human) (UniProt P05231). The assay can be described thus: SPR (ProteOn), polypeptide immobilized, rhIL-6 analyte, mean of three.
For assay [2] the target is unchanged. The assay can be described thus: ELISA, IL-6 coated, anti-human IgG Fc-HRP detection.
In assay [3] the target is TNF (human) (UniProt P01375). The assay can be described thus: ELISA, TNF coated, anti-human IgG Fc-HRP detection.

On to “LCAda-Z06814 (bispecific antibody; other documents disagree on this pair)”, for which, in assay [1], the Kd turned out to be 930 pM.

Consider “Z06814-HCAda (bispecific antibody; other documents disagree on this pair)”, for which the Kd in assay [1] is 720 pM.

With “Z14976-(GGGGS)3-LCAda (bispecific antibody; other documents disagree on this pair)”, the EC50 in assay [2] turned out to be 950 pM; in assay [3], 120 pM.

As for “Z14976-(GGGGS)-LCAda (bispecific antibody; other documents disagree on this pair)”, the EC50 was found to be 560 pM in assay [2] and 94 pM in assay [3].
